According to paper PMC6882465, “Towards discovery of new leishmanicidal scaffolds able to inhibit Leishmania GSK-3” (Journal of Enzyme Inhibition and Medicinal Chemistry, 2019):
Where two headings read alike, the source gives them in different places.

By UniProt entry, the sequences of proteins in these tests, tags left out.
UniProt P49841, whole entry: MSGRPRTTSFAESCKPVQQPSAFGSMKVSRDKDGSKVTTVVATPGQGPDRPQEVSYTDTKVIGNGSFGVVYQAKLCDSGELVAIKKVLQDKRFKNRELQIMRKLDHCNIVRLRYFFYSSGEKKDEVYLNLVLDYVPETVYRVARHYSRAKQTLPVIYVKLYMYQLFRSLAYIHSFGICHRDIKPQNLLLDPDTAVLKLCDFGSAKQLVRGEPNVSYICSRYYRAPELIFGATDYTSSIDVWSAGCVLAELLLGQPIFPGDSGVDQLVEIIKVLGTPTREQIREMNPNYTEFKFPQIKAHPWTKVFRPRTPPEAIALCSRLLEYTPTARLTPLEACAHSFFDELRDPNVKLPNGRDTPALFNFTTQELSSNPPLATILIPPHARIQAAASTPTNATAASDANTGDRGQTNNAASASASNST

Key:
hGSK-3β = hGSK-3β (Homo sapiens, UniProt P49841); conditions: read-out: hGSK-3β IC50, cited from earlier work
[1] = system: peritoneal murine macrophages (PMM); experiment: Cytotoxicity on peritoneal murine macrophages (MTT); format: cell-based, Balb/c mice; conditions: read-out: PMM EC50; Table 1; 48 h

SMILES | IC50 (hGSK-3β; Table 1) [nM] | EC50 [1] [nM] | further results
OCCN=c1nc(-c2ccccc2)n(-c2ccccc2)s1 | – | – | IC50 (hGSK-3β; Table 1, tested form: HBr): 2000 nM
O=C(CCl)c1scc(Br)c1Br | 500 | 6300 | –
Cn1sc(=O)n(Cc2ccccc2)c1=O | – | 32900 | –
Cn1cc(C2=C(C(=O)CBr)C(=O)NC2=O)c2ccccc21 | 5 | > 25000 | –
O=C(CBr)c1scc(Br)c1Br | – | – | IC50 (hGSK-3β; Table S1, ref 5 (supplement)): 1000 nM
CCCCCCCCCCCC(=O)NNC(=O)c1c(O)c2ccccc2n(CC)c1=O | – | 9900 | –
